Results as given in patent US7183251B1, “hCG therapy for the treatment of breast cancer” (Fox Chase Cancer Center, priority 1998, dated 2007).

How the values were obtained:
[1] = r-hCG in primary breast cancer: clinical side effects; assay type: in vivo, human; settings: 2-week r-hCG treatment, postmenopausal women
Text: (§1) Hormonal Treatment: Dose and Schedule. The patients selected for this study received intramuscularly (IM) 10,000 units of the experimental drug, recombinant human chorionic gonadotropin on days 1, 3, 5, 7, 9, 11 and 13. The lyophilysate was reconstituted with normal physological saline immediately before injection in the gluteus. The controls were blinded and received IM injections of placebo. At each injection the patients were seen and informed about there concurrent medication and possible side effects. Treatment was double blind with 20 active sets and 5 controls. No dose modification was allowed. When side effects occurred or concommitant clinical problems, the treatment was interrupted as was the case in one patient. The efficacy of treatment was assessed by evaluating in the residual tumor resected by lumpectomy or mastectomy at the end of the two-week r-hCG treatment the same parameters evaluated in the initial core needle biopsies.

[2] = test system: progesterone receptors (PgR); experiment: r-hCG in primary breast cancer: progesterone receptor immunocytochemistry; assay type: in vivo, human; settings: 2-week r-hCG treatment; for cases in which positive initial NB became PgR negative after treatment: positive = more than 20% of tumoral cells
Procedure: The efficacy of hCG was evaluated by treating with this hormone patients with newly diagnosed primary breast cancer. The efficacy of treatment was assessed by determining whether administration of 10,000 IU hCG on alternate days for 2 weeks to women with newly diagnosed breast cancer will reduce tumor size, inhibit cell proliferation, and modify the percentage of cells expressing estrogen and progesterone receptors. The systemic effect of the hormone was evaluated by determining serum levels of pituitary and ovarian hormones at various times of treatment. R-hCG was used in this study.
as §1, with “Treatment was double blind with 20 active sets and 5 controls. No dose modification was allowed. When side effects occurred or concommitant clinical problems, the treatment was interrupted as was the case in one patient.” left out
Surrogate Marker Analysis. The effects of r-hCG on the breast tumors was evaluated by using immunocytochemistry, performed in both core biopsies of the tumor and in residual tumor present in lumpectomy or mastectomy specimens. The following surrogate markers were evaluated using immunocytochemistry: Rate of cell proliferation, percentage of cells positive for estrogen (ER) and progesterone receptors (PgR) and immunoreactivity for inhibin. […] The study of lymph nodes of the same patients from which the primary tumors were studies was also analyzed by the same techniques. […]
Procedures. […] Cell proliferation was evaluated by counting the number of cells expressing the nuclear antigen Ki67 in the outer part of the nucleolus and in the granular component of the nucleus. […]

[3] = test system: DMBA-induced rat mammary carcinomas; experiment: Effect on advanced (palpable) tumor development after DMBA (Regimens 7-9); assay type: in vivo
Procedure: Evaluation of the therapeutic efficiency of r-hCG on mammary cancer. The tumoristatic and tumoricidal efficacy of r-hCG and u-hCG on early and advanced mammary cancer was tested in intact virgin rats that had received a single dose of DMBA when they were 45 days old (FIG. 4, Regimens 4–9). The effect on early tumor development was tested under Regimens 4, 5, and 6. It was evaluated by initiating r-hCG treatment 20 days after DMBA administration, when early lesions, such as intraductal proliferations (IDPs) and carcinomas in situ (CIS) are already present, but there are no palpable tumors as yet. The effect on advanced tumor development was evaluated by starting the hormonal treatment 60 days after DMBA administration, or when palpable tumors had reached at least 1 cm in maximal diameter (Regimens 7, 8, and 9). In both groups the hormone was administered for 40 days and final tumorigenic response was evaluated 20 weeks post-DMBA administration. The effect of the hormonal treatment on the rate of tumor growth, with special emphasis on tumor regression, absence of skin ulceration, and final tumor size and necrosis were evaluated at the time of assessment of the final tumorigenic response.
For Regimens 4–9, 300 animals were inoculated with a single ig dose of 8 mg DMBA/100 g bw when they were 45 days old. Tumorigenic response was evaluated by palpation of the right and left mammary cervical, thoracic, abdominal and inguinal areas and from ventral to dorsolateral extensions of the glands. All tumors were sequentially numbered in the order they had appeared, their location was recorded, and the rate of tumor growth was determined by measurement of tumor size with a Vernier caliper. All changes in the health status of the animals, rapid tumor growth or skin ulceration were recorded. Those animals in which the tumors were excessively large or became ulcerated were euthanized, irrespectively of the stage of the hormonal treatment, in compliance with IACUC regulations. Those animals that were euthanized before initiation or before the completion of the hormonal treatments were deleted from the statistical analysis of the final tumorigenic response.
Regimens 7–9 tested the effects of r-hCG and u-hCG on late (palpable) tumor development: Sixty days after DMBA inoculation, when the rats were 105 days old, animals allocated to Regimen 7 started receiving a daily ip injection of 100 IU/day r-hCG for 40 days. Under Regimens 8 and 9 the same number of animals received for 40 days 100 IU/day of u-hCG or 0.5 ml placebo, respectively. Tumorigenic response was evaluated by biweekly palpation. All tumors were sequentially numbered, their location was recorded, and the rate of tumor growth was determined by measurement of tumor size with a Vernier caliper. Final tumorigenic response was evaluated 20 weeks after administration of DMBA.
Evaluation of Final Tumorigenic Response. […] The tumors were rapidly dissected, measured in three dimensions, and serially sliced. Adjacent slices were:
The following criteria were utilized for evaluating the final tumorigenic response:
1. Rate of tumor growth, based on sequential measurement of the two largest diameters of tumors in live animals utilizing a Vernier Caliper and expressing the results in mm.
2. Final tumor size, based on measurement of the length, width and height of dissected tumors with a Vernier Caliper. Results were expressed in mm. A progressively smaller tumor size in successive measurements was indicative of tumor regression. Palpable tumors that had disappeared at the time of dissection were considered to be 100% regressed. The mammary tissue in which the tumor had been originally identified was fixed in 10% NBF for histopathological analysis.
5. Statistical Analysis. The significance of the differences in tumorigenic response among the groups was determined by Chi Square analysis and Student's T test.

[4] = 100 IU/day ip 40 days starting 60 days after DMBA, Regimens 7, 8

Substance: r-hCG: recombinant human chorionic gonadotropin, glycoprotein hormone composed of two non-covalently linked (α and β) subunits
- clinical side effects [1]: neither produced clinical side effects
- cases with positive NB in which lymph node metastases were negative for PgR [2]: five
- cases in which positive initial NB became PgR negative after treatment [2]: six
- cases in which positive initial NB became PgR negative after treatment ([2]; listed as Recombinant hCG): six out of ten
- No. An. With Tumors ([3]; 100 IU/day ip 40 days starting 60 days after DMBA, 20 weeks post-DMBA, Regimens 7, 8): 33
- No. Tumors/Animal (total animals at risk) [3, 4]: 3.9
- Percentage (animals with tumors) [3, 4]: 89.1
- Total No. Tumors [3, 4]: 147
- tumors per animal with tumors ([3]; Regimen 7): 4.4
- reduction of tumor burden ([3]; treatment initiated 60 days after DMBA, vs placebo): 40%
